Values quoted from earlier work as cited in patent US20100136095A1, “Systems for modulating inflammation” (Searete LLC, a limited liability corporation of the State …, priority 2008, published 2010).

By UniProt entry, the sequences of proteins in these tests, tags left out. Residues count along the entry.
UniProt P10721, 26-976: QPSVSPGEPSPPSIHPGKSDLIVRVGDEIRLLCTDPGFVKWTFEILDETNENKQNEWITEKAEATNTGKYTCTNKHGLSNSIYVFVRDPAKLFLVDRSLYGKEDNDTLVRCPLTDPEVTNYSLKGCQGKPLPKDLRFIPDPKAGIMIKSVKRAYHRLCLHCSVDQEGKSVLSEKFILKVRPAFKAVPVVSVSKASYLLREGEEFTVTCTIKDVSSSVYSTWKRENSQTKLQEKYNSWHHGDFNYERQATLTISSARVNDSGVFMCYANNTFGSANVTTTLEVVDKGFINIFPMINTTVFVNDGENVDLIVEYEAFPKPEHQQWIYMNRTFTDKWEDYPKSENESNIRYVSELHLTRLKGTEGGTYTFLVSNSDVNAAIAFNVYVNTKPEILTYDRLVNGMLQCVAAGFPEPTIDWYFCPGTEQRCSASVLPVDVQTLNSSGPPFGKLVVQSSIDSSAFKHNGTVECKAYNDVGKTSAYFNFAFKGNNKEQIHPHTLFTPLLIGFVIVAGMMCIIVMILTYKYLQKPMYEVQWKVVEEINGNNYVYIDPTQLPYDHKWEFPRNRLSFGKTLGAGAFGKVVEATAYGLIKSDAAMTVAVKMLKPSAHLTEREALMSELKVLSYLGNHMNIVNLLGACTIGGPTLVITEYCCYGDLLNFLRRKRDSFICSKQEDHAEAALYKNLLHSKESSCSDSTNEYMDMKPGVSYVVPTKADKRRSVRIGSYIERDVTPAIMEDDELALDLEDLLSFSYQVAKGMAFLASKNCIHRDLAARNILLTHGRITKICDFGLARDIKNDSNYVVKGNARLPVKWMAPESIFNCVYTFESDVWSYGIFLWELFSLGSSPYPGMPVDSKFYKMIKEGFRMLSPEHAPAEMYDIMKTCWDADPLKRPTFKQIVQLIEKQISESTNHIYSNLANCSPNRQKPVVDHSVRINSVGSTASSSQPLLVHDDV
UniProt P09619, 33-1106: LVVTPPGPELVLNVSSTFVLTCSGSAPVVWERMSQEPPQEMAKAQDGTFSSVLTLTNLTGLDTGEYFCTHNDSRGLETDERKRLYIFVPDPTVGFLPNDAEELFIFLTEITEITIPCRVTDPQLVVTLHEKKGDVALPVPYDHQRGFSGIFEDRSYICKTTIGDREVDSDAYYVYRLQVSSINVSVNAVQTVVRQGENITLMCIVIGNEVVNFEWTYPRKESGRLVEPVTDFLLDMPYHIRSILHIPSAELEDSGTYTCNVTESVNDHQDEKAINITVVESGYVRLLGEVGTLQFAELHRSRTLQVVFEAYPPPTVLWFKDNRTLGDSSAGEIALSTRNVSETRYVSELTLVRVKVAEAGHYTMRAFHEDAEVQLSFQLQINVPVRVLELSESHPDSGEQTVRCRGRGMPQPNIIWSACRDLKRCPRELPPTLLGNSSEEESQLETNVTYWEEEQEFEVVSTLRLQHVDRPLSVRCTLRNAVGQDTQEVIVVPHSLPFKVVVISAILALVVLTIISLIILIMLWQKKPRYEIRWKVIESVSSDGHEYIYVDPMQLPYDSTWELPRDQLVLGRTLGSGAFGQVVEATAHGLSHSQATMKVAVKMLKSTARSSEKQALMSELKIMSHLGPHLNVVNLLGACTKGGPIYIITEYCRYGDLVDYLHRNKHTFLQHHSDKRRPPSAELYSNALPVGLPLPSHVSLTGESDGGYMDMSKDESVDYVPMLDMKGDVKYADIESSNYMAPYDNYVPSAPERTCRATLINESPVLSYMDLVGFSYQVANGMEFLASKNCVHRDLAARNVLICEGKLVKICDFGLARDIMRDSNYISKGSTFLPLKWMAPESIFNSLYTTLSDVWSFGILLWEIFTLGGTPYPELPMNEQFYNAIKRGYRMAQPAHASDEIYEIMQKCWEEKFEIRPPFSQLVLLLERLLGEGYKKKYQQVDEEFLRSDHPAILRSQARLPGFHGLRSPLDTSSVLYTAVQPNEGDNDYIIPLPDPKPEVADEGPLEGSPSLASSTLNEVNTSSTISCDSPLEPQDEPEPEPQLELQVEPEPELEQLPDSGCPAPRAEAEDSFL

How the values were obtained:
c-Kit = c-Kit (Homo sapiens, UniProt P10721); settings: at nanomolar concentrations
PDGFRβ = PDGFRβ (Homo sapiens, UniProt P09619); settings: at nanomolar concentrations

Cc1nc(Nc2ncc(C(=O)Nc3c(C)cccc3Cl)s2)cc(N2CCN(CCO)CC2)n1.O [Dasatinib, N-(2-chloro-6-methylphenyl)-2-[[6-[4-(2-hydroxyethyl)-1-piperazinyl]-2-methyl-4-pyrimidinyl]amino]-5-thiazolecarboxamide, monohydrate]
inhibition of c-Kit (c-Kit): inhibits
inhibition of PDGFRβ (PDGFRβ): inhibits
